{
  "source": "patent US20040029926A1",
  "about": "“Thiazolidinone nitrate salt” (priority 2000, published 2004)",
  "conditions": "1 month",
  "description": "The solid state stability of the drug substance was determined by storing approximately 1.0 g of the material in a glass bottle at a) 40° C./75% Relative Humidity (RH), open exposure, for 1 month and b) at 50° C., closed, for 1 month. The material was assayed by HPLC for final content and degradation products in both cases.",
  "note": "Like-named read-outs stand apart in the source and are kept apart here.",
  "data": [
    {"smiles": "CN(CCOc1ccc(CC2SC(=O)NC2=O)cc1)c1ccccn1.O=[N+]([O-])O", "note": "(stereo not shown) [Nitrate, 5-[4-[2-(N-methyl-N-(2-pyridyl)amino)ethoxy]benzyl]thiazolidine-2,4-dione nitrate]", "values": [
      {"measurement": "Solid state stability: HPLC assay", "setting": "40° C./75% RH, open exposure", "result": 99, "unit": "% initial"},
      {"measurement": "Solid state stability: degradation", "setting": "40° C./75% RH, open exposure", "result": "No significant degradation observed"},
      {"measurement": "Solid state stability: HPLC assay", "setting": "50° C., closed", "result": 99, "unit": "% initial"},
      {"measurement": "Solid state stability: degradation", "setting": "50° C., closed", "result": "No significant degradation observed"}
    ]}
  ]
}
